According to patent US12053465B2, “KCC2 expression enhancing compounds and uses thereof” (Whitehead Institute for Biomedical Research, priority 2017, dated 2024):

Columns and labels:
[1] = system: KCC2 expression (KCC2-2A-luciferase reporter); assay: KCC2-2A-luciferase reporter compound screening with RTT KCC2 reporter neurons; assay type: cell-based, human
Protocol: The RTT KCC2-2A-luciferase reporter neurons were treated with the test compounds from the LINCS kinase inhibitor library and IRSF SMART compound library and incubated before being lysed. The cell lysate was divided into two parts to measure luciferase signal (KCC2 translation) and Cell-Titer Glow (CTG, amount of ATP). The luciferase signal was normalized to CTG for each well, and the Luc/CTG ratio was normalized to the in-plate DMSO negative control to calculate fold change ratio.
Additional screens for reporter activation in the MECP2-null RTT human KCC2 reporter neurons (isogenic to the WT reporter cells used above) were performed with the LINCS and SMART libraries as well as the ICCB known bioactive library and identified hits as compounds with B score >3.
The cells were dissociated with Accutase and resuspended in 10 ml neuronal differentiation medium to count cells. The cells were then diluted to the final density of 200,000 to 500,000 cells/ml. Matrigel was added to the cell suspension at a dilution ratio of 1:300 to promote cell adhesion after plating. AraC was added to cell suspension at the concentration of 2 μM to inhibit cell division. […] The resulting single-cell suspension was counted using a Countess automated cell counter (Invitrogen Countess Automated Cell Counter, Catalog no. C10227). […]

[2] = system: KCC2 expression (KCC2-2A-luciferase reporter); assay: KCC2-2A-luciferase reporter compound screening with wild type KCC2 reporter neurons; assay type: cell-based, human
Source text: In addition, CRISPR/Cas9 genome editing technology was utilized to insert a 2A-luciferase reporter gene directly before the stop codon of the endogenous KCC2 locus in human ES cells, thus creating wild type (WT) cells isogenic to the MECP2-null RTT human KCC2 reporter neurons. KCC2 expression reporter human neurons were differentiated from the gene-targeted ES cells and utilized as the substrate for unbiased compound screening (FIG. 6A; see also FIG. 1A).
Gene-targeted KCC2 reporter cells were used in a HTS pipeline to screen for small molecule compounds that enhance KCC2 gene expression (FIG. 1B; note that reporter neurons were adapted to 384 well format for some screens, and the same workflow was used both for WT KCC2 reporter neurons and RTT KCC2 reporter neurons). Six replicate screens were performed in WT KCC2 reporter neurons using the LINCS and SMART libraries as well as the ICCB known bioactive library (FIG. 6B).
The cells were dissociated with Accutase, resuspended in 10 ml neuronal differentiation medium to count cells. the final cell seeding density was 20 k-40 k cells per well for 96-well plates, and ˜10 k cells per well for 384-well plates. […]
For some screens, on the day of the luciferase assay, the cells were washed with PBS three times using a BioTek EL406 plate washer. […] Assay readouts were performed on a Tecan M1000 Infinite plate reader. […]

## O=C1NC(=O)C(c2ccccc2[N+](=O)[O-])=C1Nc1ccc(O)c(Cl)c1 [SB-415286, 3-[(3-Chloro-4-hydroxyphenyl)-amino]-4-(2-nitrophenyl)-1H-pyrrol-2,5-dione]
[1]
  B Score: 5.58
[2]
  B Score: 5.58
